According to PubChem BioAssay AID651699 (Sanford-Burnham Center for Chemical Genomics, 2012):
This is a selection; strong and weak results do not stand in their true shares. Some results for these compounds are left out of this collection, so the calls shown say nothing about other tests. Active and inactive are the calls of the source. Rule as the data show it: active = inhibition above about 36%; inactive = the rest.

Protein sequences, listed by entry. Tags and fused reporters are not part of them.
UniProt P61081, whole entry, looked up: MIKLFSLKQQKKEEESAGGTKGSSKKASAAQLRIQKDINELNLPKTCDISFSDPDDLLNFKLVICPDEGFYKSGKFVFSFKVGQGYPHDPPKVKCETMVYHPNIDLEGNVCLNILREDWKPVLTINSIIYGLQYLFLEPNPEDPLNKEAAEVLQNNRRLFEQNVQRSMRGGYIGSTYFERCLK
UniProt Q13564, whole entry, looked up: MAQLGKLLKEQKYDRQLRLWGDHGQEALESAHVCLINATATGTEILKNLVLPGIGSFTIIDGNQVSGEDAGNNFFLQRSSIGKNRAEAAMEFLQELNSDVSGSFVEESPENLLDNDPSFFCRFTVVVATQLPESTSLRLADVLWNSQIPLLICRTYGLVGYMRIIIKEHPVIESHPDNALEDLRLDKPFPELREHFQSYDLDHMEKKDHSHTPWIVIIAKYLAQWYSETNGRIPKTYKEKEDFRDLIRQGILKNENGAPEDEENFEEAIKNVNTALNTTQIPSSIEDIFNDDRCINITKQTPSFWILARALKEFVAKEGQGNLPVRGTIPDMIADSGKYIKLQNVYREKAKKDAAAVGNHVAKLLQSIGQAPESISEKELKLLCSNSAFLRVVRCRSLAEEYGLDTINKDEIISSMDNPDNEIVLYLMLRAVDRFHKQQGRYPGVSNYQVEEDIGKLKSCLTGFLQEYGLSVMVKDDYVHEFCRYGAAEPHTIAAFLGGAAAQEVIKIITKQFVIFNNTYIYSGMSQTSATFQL

molecular target: NEDD8-conjugating enzyme Ubc12 (Homo sapiens) + NEDD8-activating enzyme E1 regulatory subunit (Homo sapiens) (UniProt P61081+Q13564); experiment: NEDD8 transfer onto cullin, blockade – biochemical, TR-FRET, uHTS, NAE and Ubc12, primary screen (AID 651699); conditions: TR-FRET cullin neddylation, at 25 µM, active compounds read high

| Compound | inhibition |
| --- | --- |
| O=C(OC1CN2CCC1CC2)C(CO)(c1ccccc1)c1ccccc1 (stereo unspecified) | inactive: -5.03% |
| CN(C)c1cccc(C(=O)NCC2(N(C)C)CCCCC2)c1 | inactive: 21.9% |
| O=C(OCCN1CCCC1)C(O)(c1ccccc1)c1ccccc1 | inactive: -3.19% |
| CC(C)Oc1ccc(C(=O)NCC2(N(C)C)CCCCC2)cc1 | inactive: -6.67% |
| COc1ccc(Br)c(C(=O)NCC2(N3CCCCC3)CCCCC2)c1 | inactive: -4.42% |
| C=C(C)C#CC(O)(C(=O)OC1CCN(C)CC1)c1ccccc1 (stereo unspecified) | inactive: 1.24% |
| COc1cc(C(=O)NCC2(N(C)C)CCCCC2)c([N+](=O)[O-])cc1OC | inactive: -5.65% |
| CN(C)C1(CNC(=O)c2ccc(Br)cc2)CCCCC1 | inactive: 1.84% |
| O=C(NCC1(N2CCCCC2)CCCCC1)c1cccc(Cl)c1 | inactive: -0.84% |
| COc1ccc(Cl)cc1C(=O)NCC1(N(C)C)CCCCC1 | inactive: 3.28% |
| COc1cccc(C(=O)NCC2(N3CCCCC3)CCCCC2)c1 | inactive: 0.67% |
| CN(C)c1ccc(C(=O)NCC2(N(C)C)CCCCC2)cc1 | inactive: -9.2% |
| CN(C)C1CCCC1OC(=O)C(O)(c1ccccc1)c1ccccc1 (stereo unspecified) | inactive: -8.64% |
| Cc1ccccc1C(=O)NCC1(N2CCCCC2)CCCCC1 | inactive: -4.13% |
| O=C(NCC1(N2CCCCC2)CCCCC1)c1cccc(Br)c1 | inactive: -2.55% |
| CCN1CCCC(OC(=O)C2(O)c3ccccc3C=Cc3ccccc32)C1 (stereo unspecified) | inactive: 16.8% |
| Cc1cc(C(=O)NCC2(N3CCCCC3)CCCCC2)ccc1[N+](=O)[O-] | inactive: -36.8% |
| COc1ccc(C(=O)NCC2(N(C)C)CCCCC2)cc1 | inactive: -0.51% |
| O=C(NCC1(N2CCCCC2)CCCCC1)c1cc(F)c(F)cc1Cl | inactive: -5.9% |
| C=CCN1CCN(CCOC(=O)C(O)(c2ccccc2)c2ccccc2)CC1 | inactive: -0.11% |
| CN1[C@@H]2CC[C@H]1CC(OC(=O)C(O)(c1ccccc1)c1ccccc1)C2 (stereo partly specified) | inactive: -13.9% |
| O=C(NCC1(N2CCCCC2)CCCCC1)c1cc([N+](=O)[O-])ccc1Cl | inactive: -15.2% |
| Cc1ccc(C(=O)NCC2(N3CCCCC3)CCCCC2)cc1 | inactive: 4.32% |
| CC(C)N1C(=O)CC2(CCN(CCOC(=O)C(O)(c3ccccc3)c3ccccc3)CC2)C1=O | inactive: 1.1% |
| COc1cc(SC)ccc1C(=O)NCC1(N(C)C)CCCCC1 | inactive: -4.6% |
| CCN(CC)CC(C)C(C)OC(=O)C(O)(c1ccccc1)c1ccccc1 (stereo unspecified) | inactive: 7.11% |
